From US20150051212A1, “Compositions And Methods For Inhibiting Drusen” (Regenerative Research Foundation, priority 2012, published 2015)

System: RPESC-derived RPE cells
Assay: Restored resistance: transepithelial resistance of RPESC-derived RPE after oxidative stress
Type: cell-based, human
Conditions: oxidative stress by TBHP; FIG. 3
From the text: The ability of a test substance to restore transepithelial resistance may also be determined in the RPE cell-based assay. RPE cells are a tight junctioned epithelia and compromised epithelial integrity is a hallmark of RPE-associated diseases, such as, e.g., dry AMD.
Restored resistance. Healthy RPE form tight functioned epithelia layers with high electrical resistance. Compromising the integrity of these layers decreases the resistance and is indicative of a diseased state, such as dry or other forms of AMD.
Preferably, each well of primary human RPE cells has a resistance greater than 200 Ω·cm^2 before beginning the experiment. Resistance of RPE treated with a test compound is measured again, after oxidative stress, and compared to the resistance in untreated RPE subjected to the same oxidative stress procedure.

Ponatinib
effect on decrease in transepithelial resistance after oxidative stress: attenuate the decrease in transepithelial resistance
